What was measured:
[1] = tested on: IL-2 CISC (FRB-IL2RB and FKBP-IL2RG); experiment: Enrichment/expansion of split-CISC or split-DISC edited human CD4+ T cells with Rapalog, Rapamycin or IL-2; format: cell-based
human CD4+ Teff = experiment: In vitro suppression assay with human Teff (CTV dilution, intracellular cytokines); format: cell-based; details: T1D2 EngTregs

IL-2: recombinant human IL-2 used as comparator culture cytokine
FOXP3/T1D4 double positive cells at day 7 ([1]; 100 nM AP21967 or 50 ng/mL IL-2, #3240/#3243): 1.47% | GFP/mCherry double positive cells ([1]; 100 nM rapalog, over 8 days, from 1.4%, TRAC split IL-2 CISC): no expansion was observed | cell viability ([1]; 7 days in 100 nM AP21967 or 50 ng/mL IL-2): 95% | GFP/mCherry double positive cells ([1]; 7 days of enrichment, donor R003657, #3207/#3208): no enrichment | FOXP3/T1D4 double-positive cells ([1]; 7 days of treatment, cells recovered in 2.5% FBS, #3240/#3243): 1.97% | FOXP3/T1D4-positive cells ([1]; after 8 days of treatment, from 0.65%, #3240/#3243): 1.1% | effect of exogenous IL-2 on EngTreg suppression of polyclonal islet-specific Teff proliferation (human CD4+ Teff): no significant effect

From patent US20250186493A1, “ARTIFICIAL ANTIGEN-SPECIFIC IMMUNOREGULATORY T (AIRT) CELLS” (Seattle Children's Hospital (dba Seattle Children's …, priority 2020, published 2025)
